{"source": "patent US20080103169A1", "about": "“COMPOSITIONS COMPRISING ACID LABILE PROTON PUMP INHIBITING AGENTS, AT LEAST ONE OTHER PHARMACEUTICALLY ACTIVE AGENT AND METHODS OF USING SAME” (priority 2006, published 2008)", "experiment": "PPI half-life (serum concentration profile), n of 1 studies", "type": "in vivo", "conditions": "human, oral", "description": "The measure of a PPIs activity can be predicted by looking at AUC above 1 micromole. The elimination rate (Kel) is the only variable that can be changed to increase the AUC for a given PPI. Half-life=0.693/Kel\nThese are all n of 1 studies all performed on the same subject. (Unless otherwise stated, 1.68 g NaHCO3 was used as buffering agent)"}
{"molecule": "COc1ccc2[nH]c([S+]([O-])Cc3ncc(C)c(OC)c3C)nc2c1", "note": "(centres unmarked) [omeprazole, 5-methoxy-2-[[(4-methoxy-3,5-dimethyl-2-pyridinyl)methyl]sulfinyl]-1H benzimidazole]", "values": [{"measurement": "half-life", "setting": "40 mg, Day 1, 40 mg given alone", "result": 1.1, "unit": "h"}, {"measurement": "half-life", "setting": "Day 1, given as OME-IR 80 mg+Lansoprazole IR 80 mg", "result": 1.4, "unit": "h"}]}
